Broadly, the inhibition is the drop in the measured response relative to a control, in per cent.

Each structure is given as a SMILES string. The list shows a part of the results, in another mix than the full data. Some tests of the compounds listed are not included; inactive here does not mean inactive elsewhere. Calls of active or inactive are those of the source.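 Rule for the calls: active = inhibition above the campaign's mean inhibition across all tested compounds plus 3 SD (cut at about 9.9% in these data); inactive = the rest.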

This test can be described thus: E. coli V3065 growth inhibition, primary screen, counter-screen for AddAB inhibitor project, absorbance, OD600 (AID 449728).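 Note: uninfected addAB+ strain grown without phage in ampicillin broth; 0% = DMSO wells and 100% = ciprofloxacin 0.95 µg/ml wells.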 Particulars: 18 h, at 11.9 µM, stronger effect = higher value. In general terms: The purpose of a counterscreen is to sort out artefacts and off-target activity.
Take `Cc1ccccc1C(=O)NCC1(N2CCCCC2)CCCCC1`: the inhibition is inactive: -0.42%.

With `CN(C)C1CCCC1OC(=O)C(O)(c1ccccc1)c1ccccc1` (centres undefined), the inhibition was inactive: 0.17%.

Regarding `CN(C)c1ccc(C(=O)NCC2(N(C)C)CCCCC2)cc1`, the inhibition is inactive: 1.82%.

Turning to `C=CCN1CCN(CCOC(=O)C(O)(c2ccccc2)c2ccccc2)CC1`, the inhibition was inactive: 1.69%.

Consider `O=C(NCC1(N2CCCCC2)CCCCC1)c1cc(F)c(F)cc1Cl`, for which the inhibition was inactive: -0.94%.

Take `COc1ccc(C(=O)NCC2(N(C)C)CCCCC2)cc1`: the inhibition was inactive: -1.09%.

Regarding `Cc1cc(C(=O)NCC2(N3CCCCC3)CCCCC2)ccc1[N+](=O)[O-]`, the inhibition was inactive: 0.42%.

On to `CCN1CCCC(OC(=O)C2(O)c3ccccc3C=Cc3ccccc32)C1` (centres undefined), for which the inhibition is inactive: -0.6%.

For `O=C(NCC1(N2CCCCC2)CCCCC1)c1cccc(Br)c1`, the inhibition was inactive: 0.77%.

`O=C(NCC1(N2CCCCC2)CCCCC1)c1cc([N+](=O)[O-])ccc1Cl`: the inhibition is inactive: 0.59%.

`CN1[C@@H]2CC[C@H]1CC(OC(=O)C(O)(c1ccccc1)c1ccccc1)C2` (some centres undefined): the inhibition is inactive: -1.73%.

As for `CCN(CC)CC(C)C(C)OC(=O)C(O)(c1ccccc1)c1ccccc1` (centres undefined), the inhibition is inactive: 1.63%.

Consider `COc1cc(SC)ccc1C(=O)NCC1(N(C)C)CCCCC1`, for which the inhibition is inactive: 0.82%.

For the compound `CC(C)N1C(=O)CC2(CCN(CCOC(=O)C(O)(c3ccccc3)c3ccccc3)CC2)C1=O`, the inhibition is inactive: 1.03%.

With `Cc1ccc(C(=O)NCC2(N3CCCCC3)CCCCC2)cc1`, the inhibition was inactive: -1.71%.

With `O=C(OC1CN2CCC1CC2)C(CO)(c1ccccc1)c1ccccc1` (centres undefined), the inhibition is inactive: 2.85%.

Consider `COc1ccc(Br)c(C(=O)NCC2(N3CCCCC3)CCCCC2)c1`, for which the inhibition was inactive: -2.82%.

As to `CC(C)Oc1ccc(C(=O)NCC2(N(C)C)CCCCC2)cc1`, the inhibition is inactive: -0.36%.

Consider `CN(C)c1cccc(C(=O)NCC2(N(C)C)CCCCC2)c1`, for which the inhibition is inactive: -0.72%.

Consider `CN(C)C1(CNC(=O)c2ccc(Br)cc2)CCCCC1`, for which the inhibition was inactive: -0.18%.

Consider `COc1cc(C(=O)NCC2(N(C)C)CCCCC2)c([N+](=O)[O-])cc1OC`, for which the inhibition was inactive: 1.51%.

`COc1cccc(C(=O)NCC2(N3CCCCC3)CCCCC2)c1`: the inhibition is inactive: -0.51%.

As for `COc1ccc(Cl)cc1C(=O)NCC1(N(C)C)CCCCC1`, the inhibition was inactive: 0.5%.

For `O=C(NCC1(N2CCCCC2)CCCCC1)c1cccc(Cl)c1`, the inhibition is inactive: 1.36%.

The values above are taken from PubChem BioAssay AID449728 (The Scripps Research Institute Molecular Screening Center, 2010).
